For orientation: EC50 means the midpoint of the concentration-response curve.

The chains behind the UniProt entries cited, without tags or fusion partners.
UniProt P34972, whole entry: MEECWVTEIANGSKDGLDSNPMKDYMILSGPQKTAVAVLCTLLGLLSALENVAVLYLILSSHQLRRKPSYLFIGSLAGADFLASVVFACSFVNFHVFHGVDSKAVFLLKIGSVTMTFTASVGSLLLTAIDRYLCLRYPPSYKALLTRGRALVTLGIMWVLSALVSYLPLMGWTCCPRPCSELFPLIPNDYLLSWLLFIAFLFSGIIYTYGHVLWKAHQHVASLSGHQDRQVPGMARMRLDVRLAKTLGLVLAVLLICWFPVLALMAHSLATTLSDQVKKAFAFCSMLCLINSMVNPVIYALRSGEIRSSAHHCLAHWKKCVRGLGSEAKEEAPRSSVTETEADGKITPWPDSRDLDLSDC

For assay [1], the target named is T1, hCB2 receptor (Homo sapiens, UniProt P34972). Briefly: Inhibition of forskolin-stimulated cAMP accumulation, 3xHA-hCB2-CHO cells. In kind it is cell-based. On the technique in general: cAMP levels reflect the balance of adenylyl cyclase and phosphodiesterase activity.
For assay [2], the target named is T1, hCB2 receptor. Briefly: β-arrestin 2 recruitment assay. In kind it is cell-based. On the technique in general: Activated receptors often draw arrestin, which recruitment assays turn into a signal.

With `CCCCC/C=C\C/C=C\C/C=C\C/C=C\CCCC(=O)NCCO` [AEA, N-arachidonoylethanolamide], the EC50 worked out at 327 nM at hCB2 receptor [1] and 91 nM on hCB2 receptor [2].

Values taken from paper PMC12915296 (Journal of medicinal chemistry, 2025).
